The values below come from PubChem BioAssay AID1487 (National Center for Advancing Translational Sciences (NCATS), 2009).

The list shows a part of the results, in another mix than the full data. Some results for these compounds are left out of this collection, so the calls shown say nothing about other tests. Results filed as inconclusive are left out. Calls of active or inactive are those of the source. Calls come from the whole dose curve; as a rule, active = well fitted inhibition curve with a large enough effect in the signal ratio, with a control signal flat (not every such curve was filed as active); inconclusive = small, poorly fitted or top-dose-only effect, or effect the other way, or a change in a side signal; inactive = flat fitted curve, though single readings scatter; the % refers to the signal ratio.
% is set by controls: 0 for no effect and ±100 for the full control effect.

The assay in a line: qHTS Assay for Modulators of Lamin A Splicing. Particulars: HeLa LMNA splicing GFP/RFP minigene ratio, 48 h; at 46 µM (top of the series) unless noted. On the technique in general: qHTS replaces the single test concentration by a dilution series.
In the case of `CCCCOc1ccccc1C(=O)NCC1(N(C)C)CCCCC1`, the ratio change, negative = inhibition is inactive: -3.61%. To `CN(C)C1CCCC1OC(=O)C(O)(c1ccccc1)c1ccccc1` (centres undefined) belongs inactive: -10.4% [at 46.1 µM]; to `CCN1CCCC(OC(=O)C2(O)c3ccccc3C=Cc3ccccc32)C1` (centres undefined), inactive: 0.0934% [at 46.1 µM]; to `CCOc1cccc(C(=O)NCC2(N(C)C)CCCCC2)c1`, inactive: 15.7%. To `CN(C)C1(CNC(=O)c2ccccc2F)CCCCC1` belongs inactive: 12.8%; to `CC(C)N1C(=O)CC2(CCN(CCOC(=O)C(O)(c3ccccc3)c3ccccc3)CC2)C1=O`, inactive: 8.6% [at 46.1 µM]. To `CN(C)C1(CNC(=O)c2cccc(Cl)c2)CCCCC1` belongs inactive: 4.86%. For the molecule `CC(C)COc1ccc(C(=O)NCC2(N(C)C)CCCCC2)cc1`, the ratio change, negative = inhibition was inactive: 11.1%. With `O=C(OC1CN2CCC1CC2)C(CO)(c1ccccc1)c1ccccc1` (centres undefined) the figure was inactive: 17.6% [at 46.1 µM]. As for `COc1cccc(C(=O)NCC2(N3CCOCC3)CCCCC2)c1`, the ratio change, negative = inhibition is inactive: 6.71%.

Regarding `CN(C)c1cccc(C(=O)NCC2(N(C)C)CCCCC2)c1`, the ratio change, negative = inhibition is inactive: 7.5% [at 46.1 µM]. With `CC(C)Oc1ccc(C(=O)NCC2(N(C)C)CCCCC2)cc1` the figure was inactive: 7.44%; with `COc1ccc(C(=O)NCC2(N(C)C)CCCCC2)cc1Cl`, inactive: 15%.

On to `COc1cccc(C(=O)NCC2(N3CCCCC3)CCCCC2)c1`, for which the ratio change, negative = inhibition is inactive: 8.06%.
